In patent US4066678A (priority 1975, dated 1978):

How the values were obtained:
Solubility = conditions: for solubility in organic solvents: usual organic solvents

Q: With 3-germylpropionic acid oxide as the substance, how does the solubility in water (Solubility; oxide prepared by the present procedure (alkaline hydrolysis)) read?
A: Its solubility in water is “relatively high solubility”.

Q: And the solubility in water (Solubility; product from hydrolysis of 3-trichlorogermylpropionic acid with water)?
A: Its solubility in water is “sparingly soluble in water”.

Q: What about the “solubility in organic solvents” value (Solubility) of the same substance?
A: Its value is “low solubility in usual organic solvents”.

Q: And the “solubility in organic solvents” value (Solubility; listed as 3-Germylpropionic acid oxide)?
A: Its value is “poor solubility to organic solvents”.

Q: And the volatility (Volatility)?
A: Its volatility is “poor volatility”.
